This assay deals with full-length wild-type AR (hAR) (Homo sapiens, UniProt P10275). Briefly: Transactivation (luciferase) assay in U2OS-hAR-ARE-Luc reporter cells, screen and validation. Particulars: 0.3, 1, 3, 10 µM, 16 h; hit = AR transcriptional activity changed by more than 50% dose-dependently, <20% effect in control cells. In kind it is cell-based. As for the experimental part:
U2OS-hAR-ARE(Rad9)-Luc and U2OS-hARv7-ARE(PB)-Luc were then used to screen the Prestwick phytochemical library®, containing 320 natural compounds, at four concentrations (0.3, 1, 3, 10 µM) in duplicate.

Sequences of proteins named here, by UniProt entry; tags and fusion partners are left off. A change or cut given only in a name is not applied to a line headed by its entry.
UniProt P10275: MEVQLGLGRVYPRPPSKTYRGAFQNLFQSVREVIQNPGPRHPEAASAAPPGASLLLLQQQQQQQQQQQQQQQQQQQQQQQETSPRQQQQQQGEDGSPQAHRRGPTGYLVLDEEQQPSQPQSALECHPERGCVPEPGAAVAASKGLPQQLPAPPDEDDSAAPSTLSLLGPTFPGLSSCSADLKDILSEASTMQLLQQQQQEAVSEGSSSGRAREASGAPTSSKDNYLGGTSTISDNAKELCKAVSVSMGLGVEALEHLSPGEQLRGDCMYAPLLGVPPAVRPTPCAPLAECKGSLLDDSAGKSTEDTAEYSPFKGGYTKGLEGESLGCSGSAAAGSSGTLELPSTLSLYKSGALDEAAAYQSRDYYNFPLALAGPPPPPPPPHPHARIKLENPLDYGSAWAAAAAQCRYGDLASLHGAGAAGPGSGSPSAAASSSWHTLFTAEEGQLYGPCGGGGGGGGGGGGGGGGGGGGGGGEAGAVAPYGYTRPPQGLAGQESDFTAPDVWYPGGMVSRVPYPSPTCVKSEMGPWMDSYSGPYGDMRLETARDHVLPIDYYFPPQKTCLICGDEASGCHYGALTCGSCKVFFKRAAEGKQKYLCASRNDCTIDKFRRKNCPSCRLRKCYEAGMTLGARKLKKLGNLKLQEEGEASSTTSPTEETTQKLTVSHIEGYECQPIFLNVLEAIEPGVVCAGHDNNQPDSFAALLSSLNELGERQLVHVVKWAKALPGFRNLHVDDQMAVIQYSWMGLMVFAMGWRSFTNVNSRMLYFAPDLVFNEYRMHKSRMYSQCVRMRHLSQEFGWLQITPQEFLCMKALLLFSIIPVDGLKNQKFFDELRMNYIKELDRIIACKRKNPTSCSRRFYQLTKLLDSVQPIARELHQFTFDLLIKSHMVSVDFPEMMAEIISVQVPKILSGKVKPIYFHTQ

As to Solanine alpha, the “Results of 1st screen on AR” value was “No effect”.

Values taken from PMC7349874, “High Content Screening Using New U2OS Reporter Cell Models Identifies Harmol Hydrochloride as a Selective and Competitive Antagonist of the Androgen Receptor” (Cells, 2020).
